We go through 77 compounds from PubChem BioAssay AID488837 (National Center for Advancing Translational Sciences (NCATS), 2010).

Sequences of proteins named here, by UniProt entry; tags and fusion partners are left off.
UniProt O00167, whole entry: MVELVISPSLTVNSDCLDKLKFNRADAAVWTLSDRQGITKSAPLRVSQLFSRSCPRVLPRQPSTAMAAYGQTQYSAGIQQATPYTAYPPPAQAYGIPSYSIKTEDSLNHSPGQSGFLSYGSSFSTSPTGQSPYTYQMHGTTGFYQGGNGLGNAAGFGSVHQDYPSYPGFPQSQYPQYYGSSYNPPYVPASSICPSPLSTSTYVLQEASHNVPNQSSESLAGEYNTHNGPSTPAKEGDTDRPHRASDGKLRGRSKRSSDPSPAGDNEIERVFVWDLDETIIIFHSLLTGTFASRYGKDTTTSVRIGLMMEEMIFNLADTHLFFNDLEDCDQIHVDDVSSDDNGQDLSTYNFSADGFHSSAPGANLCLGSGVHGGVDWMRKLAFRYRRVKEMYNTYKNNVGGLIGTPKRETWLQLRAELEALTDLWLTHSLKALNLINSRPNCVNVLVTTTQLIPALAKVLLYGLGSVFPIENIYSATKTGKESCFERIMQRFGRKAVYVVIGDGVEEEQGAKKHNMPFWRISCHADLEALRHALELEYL

Only a part is listed here, and it is no random draw. The source made the active and inactive calls. The call rests on the fitted dose curve; in most records, active means well fitted inhibition curve with a large enough effect; inconclusive means small, poorly fitted or top-dose-only effect, or effect the other way; inactive means flat fitted curve, though single readings scatter.
On the % scale 0 is the no-effect control and ±100 the full control effect.

The assay deals with Protein phosphatase EYA2 (Homo sapiens) (UniProt O00167). Description: qHTS Assay for Inhibitors of the Phosphatase Activity of Eya2. To be noted: recombinant Eya2, OMFP fluorescence dephosphorylation (OMFP is methylfluorescein phosphate); at 76.9 µM (top of the series). From the text:
The Eya family of proteins are essential co-activators of the Six1 transcription factor. Six1 is a developmental gene that is abnormally re-expressed in a large percentage of breast cancers. This over-expression plays a causal role in the initiation and metastatic development of breast cancers. The Eya family of proteins was also found to contain a unique HAD phosphatase domain with protein tyrosine phosphatase activity which can potentially play a role in Six1-mediated breast tumorigenesis. […] We have developed and optimized a 1536 well fluorescence-based HTS assay targeting the phosphatase activity of Eya2. Inhibitors found against Eya2 could serve as potential therapeutic tools to inhibit Six1-mediated breast tumorigenesis and to increase the efficiency of radiation and certain chemo therapy. These inhibitors could also be used as chemical probes to study the function of Eya2's phosphatase activity and its role in Six1-mediated breast tumorigenesis.
The Eya2 enzyme was kindly provided by the laboratory of Dr. Rui Zhao. The 3-O-methyl-fluorescein phosphate (OMFP) substrate and all buffer reagents were purchased from Sigma Aldrich. qHTS Assay Setup: 1. Buffer- 50 mM HEPES pH 7.5, 50 mM NaCl, 5 uM MgCl2, 0.05% BSA, 1 mM DTT. 2. OMFP Stock- 10 mM solution prepared in 100% DMSO and stored in single use aliquots at -20C. Assay Procedure- 1. Dispense 1.5 ul per well of Eya2 at 0.2 uM in black medium binding 1536 well Greiner plate 2. Transfer 23 nl of compound and control compound (EGTA) to plate 3. Incubate at ambient for 10 minutes 4. Dispense 1.5 ul per well of OMFP at 50 uM 5. Incubate at ambient for 10 minutes 6. Read on ViewLux using Excitation = 485 nm, Emission = 525 nm
With `CP(=O)(Nc1ccc(SC(F)(F)F)cc1)Oc1ccccc1` (configuration not stated), the activity, negative = inhibition was inactive: -5.24%. Turning to `CCCOc1ccc(NP(C)(=O)Oc2ccc(Cl)cc2)cc1` (configuration not stated), the activity, negative = inhibition was inactive: -4.46%. The value for `CN1CCCCC1COC(=O)C1(O)c2ccccc2CCc2ccccc21` (configuration not stated) was inactive: 7.57%. For `COc1ccccc1OP(C)(=O)Nc1c(C)cccc1C` (configuration not stated), the activity, negative = inhibition was inactive: -5.7%. `CC1=C2N=C(C=C3N=C(C(C)=C4[N-][C@@](C)([C@@H]5N=C1[C@](C)(CCC(=O)NC[C@@H](C)OP(=O)([O-])O[C@H]1[C@@H](O)[C@@H](n6cnc7cc(C)c(C)cc76)O[C@@H]1CO)[C@H]5CC(N)=O)[C@@](C)(CC(N)=O)[C@@H]4CCC(N)=O)[C@@](C)(CC(N)=O)[C@@H]3CCC(N)=O)C(C)(C)[C@@H]2CCC(N)=O.[C-]#N.[Co+3]`: the activity, negative = inhibition is inactive: -9.1%.

Regarding `Cc1nc2ccc3ccccc3c2s1.O=[N+]([O-])c1cc([N+](=O)[O-])c(O)c([N+](=O)[O-])c1`, the activity, negative = inhibition is inactive: 13.2%. On to `O=[N+]([O-])c1cc([N+](=O)[O-])c(-n2nnc3ccccc32)c([N+](=O)[O-])c1`, for which the activity, negative = inhibition was inactive: 1.23%. For the compound `Cc1ccc(C)c(NP(C)(=O)Oc2ccccc2)c1` (configuration not stated), the activity, negative = inhibition is inactive: 2.07%.

As to `CP(=O)(Nc1cccc(Br)c1)Oc1ccccc1` (configuration not stated), the activity, negative = inhibition is inactive: -1.52%. In the case of `Cc1cc(C)cc(OP(C)(=O)Nc2ccccn2)c1` (configuration not stated), the activity, negative = inhibition is inactive: -24.5%. As for `CCOC(=O)c1ccc(NP(C)(=O)Oc2cc(C)cc(C)c2)cc1` (configuration not stated), the activity, negative = inhibition is inactive: -8.46%. `Cc1cc(C)cc(OP(C)(=O)Nc2ccc(C)cc2C)c1` (configuration not stated): the activity, negative = inhibition was inactive: 3.63%.

Turning to `COc1ccccc1OP(C)(=O)Nc1cccc(Br)c1` (configuration not stated), the activity, negative = inhibition was inactive: -22.9%.

As to `CC1=NCCc2c1[nH]c1ccccc21.O=[N+]([O-])c1cc([N+](=O)[O-])c(O)c([N+](=O)[O-])c1`, the activity, negative = inhibition was inactive: 4.9%. For the compound `Cc1cc(C)cc(OP(C)(N)=O)c1` (configuration not stated), the activity, negative = inhibition was inactive: 9.8%. With `COc1ccc(OP(C)(=O)Nc2cccc(F)c2)cc1` (configuration not stated), the activity, negative = inhibition is inactive: 32.7%. Regarding `COc1ccccc1OP(C)(=O)Nc1cc(Cl)ccc1C` (configuration not stated), the activity, negative = inhibition was inactive: 1.53%. Turning to `Cc1ccc(NP(C)(=O)Oc2ccccc2)c(C)c1` (configuration not stated), the activity, negative = inhibition was inactive: -2.41%. The value for `COc1ccccc1OP(C)(=O)Nc1ccc(C)cc1` (configuration not stated) was inactive: 11.6%; that for `CCOC(=O)c1ccc(NP(C)(=O)Oc2ccccc2)cc1` (configuration not stated) was inactive: -2.09%; that for `O=[N+]([O-])c1ccc2c(c1)C=Nc1ccccc1O2` was inactive: -3.19%.

Regarding `Cc1cccc(C)c1OP(C)(N)=O` (configuration not stated), the activity, negative = inhibition was inactive: -9.1%. Consider `CC(C)(C)c1ccc(OP(C)(=O)Nc2ccc(SC(F)(F)F)cc2)cc1` (configuration not stated), for which the activity, negative = inhibition was inactive: -18.2%. Turning to `O=[N+]([O-])c1cc([N+](=O)[O-])c(Nc2cccnc2)c([N+](=O)[O-])c1`, the activity, negative = inhibition was inactive: -11.1%. Turning to `CCN(CC)CCCOC(=O)C(O)(c1ccccc1)c1ccccc1`, the activity, negative = inhibition was inactive: -23.2%. As to `CCOC(=O)c1ccc(NP(C)(=O)Oc2ccc(OC)cc2)cc1` (configuration not stated), the activity, negative = inhibition is inactive: -5.18%. `CCOP(C)(=S)SCC(=O)NC(C)C(=O)O` (configuration not stated): the activity, negative = inhibition was inactive: 10.3%. `Cc1cc(C)cc(OP(C)(=O)Nc2ccc(SC(F)(F)F)cc2)c1` (configuration not stated): the activity, negative = inhibition was inactive: 0.0876%. For the compound `CCc1ccc(OP(C)(=O)N2CCN(c3ccc([N+](=O)[O-])cc3)CC2)cc1` (configuration not stated), the activity, negative = inhibition is inactive: 6.74%.

`CP(=O)(NC(=O)Nc1ccccc1)Oc1ccccc1` (configuration not stated): the activity, negative = inhibition was inactive: -5.08%. As to `CP(=O)(Oc1ccccc1)OC(c1ccccc1)C(F)(F)F` (configuration not stated), the activity, negative = inhibition is inactive: 4.65%. Regarding `CP(=O)(Nc1ccc(SC(F)(F)F)cc1)Oc1ccc(Cl)cc1` (configuration not stated), the activity, negative = inhibition was inactive: -18.6%. The value for `Cc1cccc(C)c1OP(C)(=O)Nc1ccc(SC(F)(F)F)cc1` (configuration not stated) was inactive: -21.4%; that for `CP(=O)(Nc1ccccc1Br)Oc1ccccc1` (configuration not stated) was inactive: 4.32%; that for `COc1ccccc1OP(C)(=O)Nc1ccccc1` (configuration not stated) was inactive: 5.95%. The value for `CP(=S)(Nn1cnnc1)Oc1ccccc1` (configuration not stated) was inactive: -6.17%; that for `CCOC(=O)c1ccc(NP(C)(=O)Oc2ccc(Cl)cc2)cc1` (configuration not stated) was inactive: 3.2%. The value for `CP(=O)(OC12CC3CC(CC(C3)C1)C2)OC12CC3CC(CC(C3)C1)C2` was inactive: -11.5%. `CN(C)C(=O)c1c([N+](=O)[O-])cc([N+](=O)[O-])cc1[N+](=O)[O-]`: the activity, negative = inhibition was inactive: 5.11%. The value for `CC(C)(C)c1ccc(OP(C)(=O)O)cc1` was inactive: 9.14%. For `COc1ccccc1OP(C)(=O)Nc1ccccc1Br` (configuration not stated), the activity, negative = inhibition was inactive: 2.39%. Consider `CP(=O)(Nc1ccc(Cl)cc1)Oc1ccc(F)cc1` (configuration not stated), for which the activity, negative = inhibition was inactive: 11.6%. For `O=C(OCCCN1CCCC1)C(O)(c1ccccc1)C1CCCCC1` (configuration not stated), the activity, negative = inhibition is inactive: 2.29%.

Regarding `COc1ccccc1OP(C)(=O)Nc1c(C)n(C)n(-c2ccccc2)c1=O` (configuration not stated), the activity, negative = inhibition was inactive: -2.8%.

For `CP(=O)(Oc1ccccc1)N1CCOC1=O` (configuration not stated), the activity, negative = inhibition is inactive: -0.119%. Take `COc1ccc(OP(C)(=O)Nc2ccc(Br)cc2)cc1` (configuration not stated): the activity, negative = inhibition is inactive: 3.15%. Turning to `CCN(CC)CC(O)COC(=O)C(O)(c1ccccc1)C1CCCCC1` (configuration not stated), the activity, negative = inhibition is inactive: 3.62%. The value for `CP(=O)(Nc1ccccn1)Oc1ccccc1` (configuration not stated) was inactive: -27.3%. Regarding `CCc1ccc(OP(C)(=O)O)cc1`, the activity, negative = inhibition is inactive: -11.9%. `O=[N+]([O-])c1cc([N+](=O)[O-])c(Nc2ccccn2)c([N+](=O)[O-])c1`: the activity, negative = inhibition is inactive: 0.372%. The value for `Cc1c(NP(C)(=O)Oc2ccc(C(C)C)cc2)c(=O)n(-c2ccccc2)n1C` (configuration not stated) was inactive: -6.11%; that for `COc1ccc(OP(C)(=O)Nc2ccccn2)cc1` (configuration not stated) was inactive: -0.586%; that for `CN(C)CCOC(=O)C(O)(c1ccccc1)C1CCCC1` (configuration not stated) was inactive: -15.9%. On to `COc1ccccc1OP(C)(=O)Nc1ccc(Br)cc1` (configuration not stated), for which the activity, negative = inhibition is inactive: -1.9%. The value for `CP(=O)(OCCOc1ccccc1)OCCOc1ccccc1` was inactive: -8.52%; that for `CP(=O)(Nc1ccc(Cl)cc1Cl)Oc1ccccc1` (configuration not stated) was inactive: 15.6%; that for `Cc1nc2ccc3ccccc3c2o1.O=[N+]([O-])c1cc([N+](=O)[O-])c(O)c([N+](=O)[O-])c1` was inactive: 2.98%.

`COc1ccccc1OP(C)(=O)Nc1ccc(C)c(C)c1` (configuration not stated): the activity, negative = inhibition was inactive: -4.78%.

For the compound `COc1ccc(OP(C)(=O)Nc2ccccc2Br)cc1` (configuration not stated), the activity, negative = inhibition was inactive: -2.92%. `Cc1cc(C)cc(OP(C)(=O)Nc2cccc(C(F)(F)F)c2)c1` (configuration not stated): the activity, negative = inhibition was inactive: -1.47%. For `CP(=O)(Nc1ccccc1)Oc1ccc(F)cc1` (configuration not stated), the activity, negative = inhibition was inactive: -16.8%. Consider `CCCCCOc1ccc(NP(C)(=O)Oc2ccc(Cl)cc2Cl)cc1` (configuration not stated), for which the activity, negative = inhibition is inactive: -23.4%. Turning to `CCN(CC)CCCOC(=O)C(O)(c1ccccc1)C1CCCCC1` (configuration not stated), the activity, negative = inhibition is inactive: 2%. The value for `CCOC(=O)c1ccc(NP(C)(=O)Oc2ccc(F)cc2)cc1` (configuration not stated) was inactive: 1.14%. Take `COc1ccc(OP(C)(=O)Nc2ccc(SC(F)(F)F)cc2)cc1` (configuration not stated): the activity, negative = inhibition was inactive: -15.4%. In the case of `O=C(OCCN1CCN(CCOCc2ccccc2)CC1)C(O)(c1ccccc1)c1ccccc1`, the activity, negative = inhibition was inactive: -5.39%.

Turning to `CP(=O)(Nc1ccccc1F)Oc1ccccc1` (configuration not stated), the activity, negative = inhibition was inactive: 1.72%. In the case of `CC(C)c1ccc(OP(C)(=O)Nc2ccc(SC(F)(F)F)cc2)cc1` (configuration not stated), the activity, negative = inhibition was inactive: -24.5%. Consider `Cc1ccccc1NP(C)(=O)Nc1ccccc1C`, for which the activity, negative = inhibition was inactive: 5.03%. `CP(=O)(Nc1ccc2c(c1)OCCO2)Oc1ccccc1` (configuration not stated): the activity, negative = inhibition is inactive: -17.2%. In the case of `CCOP(C)(=S)SCC(=O)NC(C)(CC)C(=O)O` (configuration not stated), the activity, negative = inhibition was inactive: -7.66%. As to `CP(=O)(Nc1ccc(SC(F)(F)F)cc1)Oc1ccc(F)cc1` (configuration not stated), the activity, negative = inhibition is inactive: -21.9%. For the compound `O=[N+]([O-])c1ccc(OP2(=O)COCCO2)cc1` (configuration not stated), the activity, negative = inhibition is inactive: 6.92%. With `Cc1cc(-c2cccc3ccccc23)c(C)cn1.O=[N+]([O-])c1cc([N+](=O)[O-])c(O)c([N+](=O)[O-])c1`, the activity, negative = inhibition was inactive: 10.2%.

For the compound `CN(C)CCOC(=O)C(O)(c1ccccc1)C1CCCCC1` (configuration not stated), the activity, negative = inhibition is inactive: -12.3%. In the case of `COc1ccc(NP(C)(=O)Oc2ccccc2OC)cc1` (configuration not stated), the activity, negative = inhibition is inactive: -7.89%. For the compound `COc1ccc(OP(C)(=O)Nc2cccc(Br)c2)cc1` (configuration not stated), the activity, negative = inhibition is inactive: 7.63%.
